Legend:
ERK2 = ERK2 (Homo sapiens, UniProt P28482); experiment: Kinase assay (Caliper, FAM-labeled peptide), ERK2; details: read-out: IC50(nM) ERK2
Protocol: (§1) The compound was diluted to the desired concentration with DMSO, transferred 100 μL to a 96-well plate, and performed a gradient dilution 10 μL of compound from each well was taken and mixed with 90 μL of kinase buffer, and then transferred 5 μL from each well to a 384-well plate. Kinase and FAM-labeled peptide and ATP were added to 1× kinase alkaline buffer to obtain 2.5× enzyme solution and 2.5× peptide solution, 10 μL of 2.5× enzyme solution was added to the 384-well assay plate. After incubating for 10 minutes at room temperature, 10 μL of 2.5× peptide solution was added to the 384-well plate. After reacting for a specific time at […], 25 μL of termination buffer was added to stop reaction. After reading the collected data on Caliper, the data was converted to inhibition percentage. Inhibition percentage=(maximum value−conversion value)/(maximum value−minimum value)*100.
(§2) The “maximum” is the DMSO control, the “minimum” indicates the low control.
(§3) Graphpad Prism software was used to perform curve fitting and obtain IC50 value.

Amino acid sequences for entries named in this document (tags omitted).
UniProt P28482, whole entry: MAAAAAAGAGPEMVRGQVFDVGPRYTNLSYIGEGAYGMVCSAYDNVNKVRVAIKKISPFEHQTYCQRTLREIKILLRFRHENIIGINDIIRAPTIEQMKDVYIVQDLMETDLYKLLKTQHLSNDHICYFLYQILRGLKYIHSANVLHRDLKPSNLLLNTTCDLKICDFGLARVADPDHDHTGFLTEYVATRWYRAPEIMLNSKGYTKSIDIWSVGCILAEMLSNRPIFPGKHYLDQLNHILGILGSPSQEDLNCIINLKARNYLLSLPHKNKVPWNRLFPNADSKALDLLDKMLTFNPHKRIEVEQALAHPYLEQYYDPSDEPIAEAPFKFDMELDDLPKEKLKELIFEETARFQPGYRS
UniProt P27361, whole entry: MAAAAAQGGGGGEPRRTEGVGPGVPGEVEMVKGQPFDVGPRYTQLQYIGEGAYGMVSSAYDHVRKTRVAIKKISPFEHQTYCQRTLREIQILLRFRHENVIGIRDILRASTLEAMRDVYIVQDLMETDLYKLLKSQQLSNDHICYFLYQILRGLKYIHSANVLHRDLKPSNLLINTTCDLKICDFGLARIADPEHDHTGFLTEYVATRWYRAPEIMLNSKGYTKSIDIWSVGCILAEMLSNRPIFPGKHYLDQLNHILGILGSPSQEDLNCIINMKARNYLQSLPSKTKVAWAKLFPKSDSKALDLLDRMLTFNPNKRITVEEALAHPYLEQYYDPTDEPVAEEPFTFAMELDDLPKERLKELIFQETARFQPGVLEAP

ERK1 = ERK1 (Homo sapiens, UniProt P27361); experiment: Kinase assay (Caliper, FAM-labeled peptide), ERK1; details: read-out: IC50(nM) ERK1
Protocol: as §1, §2, §3

IC50 (ERK2): 0.87 nM | IC50 (ERK1): 0.76 nM
SMILES: COC[C@H]1Cn2cc(-c3cc(NC(C)C)ncc3F)cc2C(=O)N1Cc1cc(F)ccc1CO
